Among the data in US20230144824A1, “1H-PYRAZOLO[4,3-d]PYRIMIDINE COMPOUNDS AS TOLL-LIKE RECEPTOR 7 (TLR7) AGONISTS” (BRISTOL-MYERS SQUIBB COMPANY, priority 2020, published 2023) are EC50 values, retold here.

The chains behind the UniProt entries cited, without tags or fusion partners. Residues count along the entry.
UniProt Q9NYK1, 27-1049 limits assumed: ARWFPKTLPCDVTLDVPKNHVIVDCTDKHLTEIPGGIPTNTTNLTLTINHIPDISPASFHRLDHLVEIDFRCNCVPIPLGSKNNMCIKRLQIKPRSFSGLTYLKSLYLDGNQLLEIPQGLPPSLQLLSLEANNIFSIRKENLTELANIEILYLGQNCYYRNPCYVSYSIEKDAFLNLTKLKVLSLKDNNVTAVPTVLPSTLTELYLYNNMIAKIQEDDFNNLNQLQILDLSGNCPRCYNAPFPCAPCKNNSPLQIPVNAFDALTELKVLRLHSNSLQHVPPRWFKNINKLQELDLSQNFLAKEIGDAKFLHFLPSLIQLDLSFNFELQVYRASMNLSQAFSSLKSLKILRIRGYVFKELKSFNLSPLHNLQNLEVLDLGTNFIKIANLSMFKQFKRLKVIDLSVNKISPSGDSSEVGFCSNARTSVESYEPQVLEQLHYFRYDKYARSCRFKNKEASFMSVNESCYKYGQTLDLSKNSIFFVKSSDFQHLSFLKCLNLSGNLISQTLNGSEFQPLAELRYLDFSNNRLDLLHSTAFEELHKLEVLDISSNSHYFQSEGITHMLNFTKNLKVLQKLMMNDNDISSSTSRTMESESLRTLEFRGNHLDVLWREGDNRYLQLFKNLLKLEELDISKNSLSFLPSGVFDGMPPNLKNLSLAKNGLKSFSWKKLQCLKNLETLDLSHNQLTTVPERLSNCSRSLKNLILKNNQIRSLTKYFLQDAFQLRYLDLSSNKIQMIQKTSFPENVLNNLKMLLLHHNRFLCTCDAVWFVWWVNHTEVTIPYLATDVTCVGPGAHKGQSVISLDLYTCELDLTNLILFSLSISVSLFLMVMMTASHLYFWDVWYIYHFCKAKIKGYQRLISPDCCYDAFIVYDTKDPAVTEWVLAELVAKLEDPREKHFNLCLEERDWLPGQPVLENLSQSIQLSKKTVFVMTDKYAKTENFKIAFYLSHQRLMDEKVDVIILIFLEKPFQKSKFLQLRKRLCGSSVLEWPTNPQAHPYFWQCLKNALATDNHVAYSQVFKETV

pEC50: −log10 of the molar value.

The assay has as its target human TLR7 (Homo sapiens, UniProt Q9NYK1). Put plainly: Human TLR7 agonist activity assay (HEK-Blue TLR7 SEAP reporter). The note with it: read-out: hTLR7 Agonism EC50, HEK-Blue TLR7 cells, 18 h treatment, average where assay performed multiple times. Here is the method:
This procedure describes a method for assaying human TLR7 (hTLR7) agonist activity of the compounds disclosed in this specification.
HEK-Blue™ TLR7 cells were added to each well of a 384-well tissue-culture plate (15,000 cells per well) and incubated 16-18 h at 37° C., 5% CO2. Compounds (100 nl) were dispensed into wells containing the HEK-Blue™ TLR cells and the treated cells were incubated at 37° C., 5% CO2. After 18 h treatment ten microliters of freshly-prepared Quanti-Blue™ reagent (Invivogen) was added to each well, incubated for 30 min (37° C., 5% CO2) and SEAP levels measured using an Envision plate reader (OD=620 nm). The half maximal effective concentration values (EC50; compound concentration which induced a response halfway between the assay baseline and maximum) were calculated.

With `CCC[C@@H](CCO)Nc1nc(N)nc2cnn(Cc3ncc(C4CCN(Cc5nc(C)no5)CC4)cc3OC)c12`, the pEC50 was 7.55.
